Experimental findings from US20120141540A1 are described below.

The target in experiment [1] is Cyclosporin A (Tolypocladium inflatum). Kind of experiment: cell-based or functional assay.
Experiment [2] shares this target. Kind of experiment: centrifugal ultrafiltration (10 kDa cut-off) of a 1:1 protein-drug mixture, CsA measured by HPLC; CsA alone: only 15% in the upper portion.

As for “recombinant N-terminal His-tagged human Cyclophilin A (from UniProt P62937 1-165) (enzyme)”, in experiment [1], the CsA binding capacity of RBC dialysed with 20 µM CypA (HPLC) (µg/ml RBC at 100% hematocrit) stood at 8.9; the CsA binding capacity of RBC dialysed with 40 µM CypA (HPLC) (µg/ml RBC at 100% hematocrit) was 12.2; the CsA binding capacity of RBC dialysed with 80 µM CypA (HPLC) (µg/ml RBC at 100% hematocrit) was determined as 17; the quantity of drug bound by RBC loaded with 20 µM CypA, times greater than native cells is 1.8 times. In experiment [1], this substance gave a quantity of drug bound by RBC loaded with 20 µM CypA, times greater than un-loaded cells of 3 times; a quantity of drug bound by RBC loaded with 40 µM CypA, times greater than native cells of 2.4 times; a quantity of drug bound by RBC loaded with 40 µM CypA, times greater than un-loaded cells of 4 times; a quantity of drug bound by RBC loaded with 80 µM CypA, times greater than native cells of 3 times. For the same substance, the quantity of drug bound by RBC loaded with 80 µM CypA, times greater than un-loaded cells in experiment [1] came to 5 times. For the same substance, the percent of the whole drug recovered in the un-filtered fraction in experiment [2] was above 70%.
